Molecules are shown by their SMILES. The entries are a selection whose mix differs from that of the whole data set. Calls of active or inactive are those of the source.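 Rule for the calls: active = more than half of a compound's replicate wells show inhibition beyond 50%, single wells judged on their own value; inconclusive = some, but no more than half, of replicates pass 50% inhibition; inactive = no replicate passes 50% inhibition.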

Sequences of proteins named here, by UniProt entry; tags and fusion partners are left off. Residues count along the entry.
UniProt Q9H3R0, 1-420 limits assumed: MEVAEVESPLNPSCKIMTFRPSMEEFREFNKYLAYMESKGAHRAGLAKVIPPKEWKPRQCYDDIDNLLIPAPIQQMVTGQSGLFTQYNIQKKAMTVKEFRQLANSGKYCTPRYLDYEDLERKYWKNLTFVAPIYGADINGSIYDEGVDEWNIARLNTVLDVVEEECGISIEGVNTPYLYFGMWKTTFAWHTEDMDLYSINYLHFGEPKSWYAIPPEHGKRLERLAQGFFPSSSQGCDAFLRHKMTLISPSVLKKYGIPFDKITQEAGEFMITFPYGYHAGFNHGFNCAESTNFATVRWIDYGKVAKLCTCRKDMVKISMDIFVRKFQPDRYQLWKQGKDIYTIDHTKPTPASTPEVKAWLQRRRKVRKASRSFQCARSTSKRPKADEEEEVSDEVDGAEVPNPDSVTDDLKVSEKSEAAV

The experiment deals with Lysine-specific demethylase 4C (Homo sapiens) (UniProt Q9H3R0). Nature of the experiment: JMJD2C H3K9me3 demethylation blockers – biochemical, fluorescence, DELFIA europium, primary screen (AID 2099).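 Note: signal counts dimethyl H3K9 product captured on neutravidin plate; 0% = median of DMSO wells and 100% = 0.3 times that DMSO median.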 The note with it: GST-JMJD2C(1-420) H3K9me3 demethylation, at 2.35 µM, stronger effect = higher value.
On to `NC(=O)Nc1ccc([As](=O)(O)O)cc1`, for which the inhibition (as a rule, the change of the read-out against control, counted positive when it falls) was inactive: -1.31%.
`O=[N+]([O-])c1ncn(CCn2cnc([N+](=O)[O-])n2)n1`: the inhibition was inactive: -1.2%.

These data come from PubChem BioAssay AID2099 (Broad Institute, 2009).
